Measured values: BindingDB's records for doi:10.1016/j.bmc.2006.10.040 (University of Camerino, 2007)

Amino acid sequences for entries named in this document (tags omitted). A change or cut given only in a name is not applied to a line headed by its entry.
UniProt P11229: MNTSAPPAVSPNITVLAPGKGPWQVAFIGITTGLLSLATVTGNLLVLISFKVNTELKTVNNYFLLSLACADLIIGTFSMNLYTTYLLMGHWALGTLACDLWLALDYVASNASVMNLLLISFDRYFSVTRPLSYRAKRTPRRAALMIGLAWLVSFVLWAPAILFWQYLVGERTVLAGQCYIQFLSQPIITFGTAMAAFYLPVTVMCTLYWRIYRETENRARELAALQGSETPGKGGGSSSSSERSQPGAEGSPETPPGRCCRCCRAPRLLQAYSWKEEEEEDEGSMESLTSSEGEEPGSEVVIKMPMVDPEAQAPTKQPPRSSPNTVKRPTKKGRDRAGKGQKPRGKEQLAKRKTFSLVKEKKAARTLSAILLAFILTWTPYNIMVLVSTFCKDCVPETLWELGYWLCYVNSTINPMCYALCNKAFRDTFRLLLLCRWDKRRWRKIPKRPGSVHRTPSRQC

Molecular target: Muscarinic acetylcholine receptor M1 (Homo sapiens, UniProt P11229)

SMILES	EC50 [µM]
CC1COCC(C[N+](C)(C)C)O1 (stereo not drawn)	38.9
C[C@@H]1COC[C@H](C[N+](C)(C)C)O1	794
C[C@H]1COC[C@@H](C[N+](C)(C)C)O1	8.31
